Measurements published in patent US10294227B2, “Compounds” (UNIVERSITY COURT OF THE UNIVERSITY OF EDINBURGH, priority 2015, dated 2019).
Like-named read-outs stand apart in the source and are kept apart here.

Key:
in vivo = settings: female, mouse, po
[1] = rat, serum
[2] = human, serum
[3] = mouse, in vivo

## COc1cc(-c2nn(CCN3CCC(N(C)C)CC3)c3ncnc(N)c23)ccc1NC(=O)OC(C)(C)C [Compound 506, tert-butyl N-[4-[4-amino-1-[2-[4-(dimethylamino)-1-piperidyl]ethyl]pyrazolo[3,4-d]pyrimidin-3-yl]-2-methoxy-phenyl]carbamate]
In vivo
  bioavailability: 25%
[1]
  fraction unbound: 0.191
[2]
  fraction unbound: 0.094
[3]
  Oral Bioavailability: moderate
